In PMC4613828 (PLoS Pathogens, 2015):

Key:
Test in all cases: Virus-cell-based antiviral assay (CPE reduction, MTS)
CVB3 (strain Nancy) = tested on: CVB3 (strain Nancy); design: species or system Coxsackievirus B3; settings: Enterovirus B, CVB3, BGM
CVA9 (strain Bozek) = tested on: CVA9 (strain Bozek); design: species or system Coxsackie A9; settings: Enterovirus B, CVA9, BGM
[1] = tested on: EV71-B5 (strain TW/96016/08 genogroup B5); design: species or system enterovirus 71; settings: Enterovirus A, EV71, RD
CVA21 (strain Coe) = settings: BGM
[2] = tested on: HRV02 (human rhinovirus type 2); settings: Human rhinovirus sp., HRV02, HeLa H1
[3] = tested on: EV71-B2 (strain 11316 genogroup B2); design: species or system enterovirus 71; settings: Enterovirus A, EV71, RD
[4] = tested on: HRV14 (human rhinovirus type 14); settings: Human rhinovirus sp., HRV14, HeLa H1
CVB4 (strain E2 Edwards) = settings: Enterovirus B, CVB4, BGM
CVA16 (strain G-10) = tested on: CVA16 (strain G-10); design: species or system coxsackievirus A16; settings: Enterovirus A, CVA16, HeLa H1
[5] = tested on: ECHO11 (echovirus 11 strain Gregory); settings: Enterovirus B, BGM

For `CCON=Cc1ccc(OCCC(C)CCN2CCN(c3ccnc(N)c3)C2=O)cc1` (stereo not shown) [NLD], the EC50 (CVB3 (strain Nancy)) was 2.6 ± 0.2 µM, the EC50 (CVA9 (strain Bozek)) was 6 ± 1 µM and the EC50 [1] was 0.0014 ± 0.0003 µM. For the same molecule, the EC50 (CVA21 (strain Coe)) was 0.013 ± 0.008 µM, the EC50 [2] was 2.4 µM and the EC50 [3] was 0.00053 ± 5e-05 µM. For the same molecule, the EC50 [4] was greater than 5 µM, the EC50 (CVB4 (strain E2 Edwards)) was greater than 17 µM and the EC50 (CVA16 (strain G-10)) was 0.00012 ± 4e-05 µM. The EC50 [5] was 1.3 ± 0.2 µM.
